From PubChem BioAssay (NCI)
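Method: 48-hour compound exposure of cells in 96-well plates, five concentrations, linear interpolation of endpoints. GI50 marks 50% less growth. TGI marks complete inhibition of growth.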

Tests used:
Assay in all cases: NCI-60 cell line screen, 48 h
[1] = system: DU-145 prostate
[2] = system: SF-268 CNS
[3] = system: CCRF-CEM leukemia
[4] = system: NCI-H322M lung
[5] = system: SNB-75 CNS
[6] = system: MALME-3M melanoma
[7] = system: MDA-N
[8] = system: HS 578T breast
[9] = system: BT-549 breast
[10] = system: RPMI-8226 leukemia
[11] = system: HOP-92 NSCLC
[12] = system: U251 CNS
[13] = system: NCI/ADR-RES ovarian
[14] = system: NCI-H23 lung
[15] = system: KM12 colon
[16] = system: NCI-H226 lung
[17] = system: OVCAR-3 ovarian
[18] = system: MDA-MB-435
[19] = system: OVCAR-4 ovarian
[20] = system: SK-MEL-2 melanoma
[21] = system: UO-31 renal
[22] = system: MOLT-4 leukemia
[23] = system: A549 NSCLC
[24] = system: OVCAR-5 ovarian
[25] = system: RXF 393 renal
[26] = system: M14 melanoma
[27] = system: CAKI-1 renal
[28] = system: SF-539 CNS
[29] = system: NCI-H460 lung
[30] = system: SF-295 CNS
[31] = system: UACC-257 melanoma
[32] = system: SR leukemia
[33] = system: OVCAR-8 ovarian
[34] = system: MCF7 breast
[35] = system: SK-MEL-5 melanoma
[36] = system: SK-OV-3 ovarian
[37] = system: T-47D breast
[38] = system: TK-10 renal
[39] = system: PC-3 prostate
[40] = system: SNB-19 CNS
[41] = system: HT29 colon
[42] = system: 786-0 renal
[43] = system: ACHN renal
[44] = system: NCI-H522 lung
[45] = system: HL-60(TB) leukemia
[46] = system: HCT-116 colon
[47] = system: SK-MEL-28 melanoma
[48] = system: SN12C renal
[49] = system: HOP-62 NSCLC
[50] = system: HCC-2998 colon
[51] = system: LOX IMVI melanoma
[52] = system: SW-620 colon
[53] = system: EKVX NSCLC
[54] = system: IGROV1 ovarian
[55] = system: COLO 205 colon
[56] = system: HCT-15 colon
[57] = system: UACC-62 melanoma
[58] = system: A498 renal
[59] = system: MDA-MB-231 breast
[60] = system: K-562 leukemia

SMILES: O=[N+]([O-])c1cn(F)c([N+](=O)[O-])n1
- GI50 [1]: 25.8 µM
- TGI [1]: 67 µM
- GI50 [2]: 20.3 µM
- TGI [2]: 41.7 µM
- GI50 [3]: 4.24 µM
- TGI [3]: > 100 µM
- GI50 [4]: > 100 µM
- TGI [4]: > 100 µM
- GI50 [5]: 40.5 µM
- TGI [5]: 58.3 µM
- GI50 [6]: 14.9 µM
- TGI [6]: 28.3 µM
- GI50 [7]: 13.6 µM
- TGI [7]: 18.4 µM
- GI50 [8]: > 100 µM
- TGI [8]: > 100 µM
- GI50 [9]: 17.8 µM
- TGI [9]: 31.9 µM
- GI50 [10]: 23.7 µM
- TGI [10]: 82.9 µM
- GI50 [11]: 21.2 µM
- TGI [11]: 42 µM
- GI50 [12]: 27.1 µM
- TGI [12]: 77.2 µM
- GI50 [13]: 20.9 µM
- TGI [13]: 62.5 µM
- GI50 [14]: 18.6 µM
- TGI [14]: 36.4 µM
- GI50 [15]: 41.5 µM
- TGI [15]: 57.4 µM
- GI50 [16]: 51 µM
- TGI [16]: 77.2 µM
- GI50 [17]: 17.2 µM
- TGI [17]: 31 µM
- GI50 [18]: 22.4 µM
- TGI [18]: 47.9 µM
- GI50 [19]: 18.7 µM
- TGI [19]: 33.6 µM
- GI50 [20]: 31.8 µM
- TGI [20]: 86.4 µM
- GI50 [21]: 19.1 µM
- TGI [21]: 33.3 µM
- GI50 [22]: 3.4 µM
- TGI [22]: 44.1 µM
- GI50 [23]: 49.3 µM
- TGI [23]: 74.5 µM
- GI50 [24]: 19 µM
- TGI [24]: 38.1 µM
- GI50 [25]: 16.6 µM
- TGI [25]: 33.7 µM
- GI50 [26]: 15.9 µM
- TGI [26]: 32.2 µM
- GI50 [27]: 6.51 µM
- TGI [27]: 12.2 µM
- GI50 [28]: 18.5 µM
- TGI [28]: 37.6 µM
- GI50 [29]: 46.6 µM
- TGI [29]: 69.6 µM
- GI50 [30]: 86.4 µM
- TGI [30]: > 100 µM
- GI50 [31]: 18.8 µM
- TGI [31]: 38.7 µM
- GI50 [32]: 10.3 µM
- TGI [32]: 73.9 µM
- GI50 [33]: 23.8 µM
- TGI [33]: 62.2 µM
- GI50 [34]: 22.3 µM
- TGI [34]: 59.8 µM
- GI50 [35]: 17.6 µM
- TGI [35]: 34.6 µM
- GI50 [36]: 53.4 µM
- TGI [36]: 76.1 µM
- GI50 [37]: 22.3 µM
- TGI [37]: 46.8 µM
- GI50 [38]: 16.8 µM
- TGI [38]: 31.2 µM
- GI50 [39]: 34.8 µM
- TGI [39]: 81.1 µM
- GI50 [40]: > 100 µM
- TGI [40]: > 100 µM
- GI50 [41]: 20.6 µM
- TGI [41]: 47.8 µM
- GI50 [42]: 18.6 µM
- TGI [42]: 35.9 µM
- GI50 [43]: 11.6 µM
- TGI [43]: 23.8 µM
- GI50 [44]: 4.64 µM
- TGI [44]: 18.1 µM
- GI50 [45]: 3.81 µM
- TGI [45]: 56.2 µM
- GI50 [46]: 18.8 µM
- TGI [46]: 39.1 µM
- GI50 [47]: 26.6 µM
- TGI [47]: 63.8 µM
- GI50 [48]: 13.3 µM
- TGI [48]: 17.8 µM
- GI50 [49]: > 100 µM
- TGI [49]: > 100 µM
- GI50 [50]: 12.8 µM
- TGI [50]: 17.7 µM
- GI50 [51]: 23.5 µM
- TGI [51]: 59.4 µM
- GI50 [52]: 20.5 µM
- TGI [52]: 59.8 µM
- GI50 [53]: 19.3 µM
- TGI [53]: 34.3 µM
- GI50 [54]: 19.3 µM
- TGI [54]: 35.7 µM
- GI50 [55]: 8.41 µM
- TGI [55]: 55.6 µM
- GI50 [56]: 10.6 µM
- TGI [56]: 25.4 µM
- GI50 [57]: 18 µM
- TGI [57]: 34 µM
- GI50 [58]: 17.3 µM
- TGI [58]: 24.2 µM
- GI50 [59]: 15.2 µM
- TGI [59]: 19.6 µM
- GI50 [60]: 8.91 µM
- TGI [60]: > 100 µM
